Target: P97 (Homo sapiens (Human), UniProt P55072)
Test: P97 Biomolgreen ATPase assay, 200 μM ATP
Format: biochemical
Settings: read-out: P97 Biomolgreen

By UniProt entry, the sequences of proteins in these tests, tags left out.
UniProt P55072, whole entry: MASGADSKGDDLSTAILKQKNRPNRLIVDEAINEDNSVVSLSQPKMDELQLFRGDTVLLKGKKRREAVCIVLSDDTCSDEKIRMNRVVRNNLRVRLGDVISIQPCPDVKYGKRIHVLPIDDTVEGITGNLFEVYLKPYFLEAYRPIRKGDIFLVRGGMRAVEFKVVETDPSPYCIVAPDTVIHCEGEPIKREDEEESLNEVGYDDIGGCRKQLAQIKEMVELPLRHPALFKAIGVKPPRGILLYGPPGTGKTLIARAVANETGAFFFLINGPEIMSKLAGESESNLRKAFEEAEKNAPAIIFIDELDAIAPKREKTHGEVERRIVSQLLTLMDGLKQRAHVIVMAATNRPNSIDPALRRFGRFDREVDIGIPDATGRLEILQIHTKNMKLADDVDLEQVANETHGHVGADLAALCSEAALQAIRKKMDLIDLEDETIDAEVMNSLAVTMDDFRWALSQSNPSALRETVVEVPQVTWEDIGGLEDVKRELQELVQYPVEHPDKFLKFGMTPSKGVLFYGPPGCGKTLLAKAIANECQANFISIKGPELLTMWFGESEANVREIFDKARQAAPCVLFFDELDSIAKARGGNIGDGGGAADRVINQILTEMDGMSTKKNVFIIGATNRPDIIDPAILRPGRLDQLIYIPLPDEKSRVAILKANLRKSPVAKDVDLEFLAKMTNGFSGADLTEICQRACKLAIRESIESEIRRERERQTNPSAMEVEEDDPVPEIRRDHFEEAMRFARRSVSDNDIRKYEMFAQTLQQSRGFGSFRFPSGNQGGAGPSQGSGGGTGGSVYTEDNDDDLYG

Cc1cc(OCc2nnc(SC3C=CCCC3)n2-c2cccnc2)ccc1C#CCOC(=O)NC1CCN(C)CC1 (stereo not shown)
IC50: 0.015 µM
